# Target: T1, SETD2 (1347-1711) (Homo sapiens, UniProt Q9BYW2)
# T1 construct: SETD2 (1347-1711)
# T1 sequence (Q9BYW2 1347-1711): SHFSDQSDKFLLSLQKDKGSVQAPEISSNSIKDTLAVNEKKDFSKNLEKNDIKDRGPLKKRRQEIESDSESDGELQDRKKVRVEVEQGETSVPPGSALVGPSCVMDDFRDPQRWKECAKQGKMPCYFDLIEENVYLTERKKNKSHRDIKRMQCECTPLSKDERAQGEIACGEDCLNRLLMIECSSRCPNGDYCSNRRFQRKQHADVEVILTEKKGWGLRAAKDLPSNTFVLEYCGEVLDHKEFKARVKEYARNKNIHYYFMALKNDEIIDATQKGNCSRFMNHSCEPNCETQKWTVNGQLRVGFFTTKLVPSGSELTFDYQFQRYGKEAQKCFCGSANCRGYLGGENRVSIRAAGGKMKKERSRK
# Test: Filter-paper methylation assay, SETD2
# Format: biochemical
# Conditions: among the subset of PMTs screened
smiles,measurement,value
CCCN[C@@H](CC[C@H](N)C(=O)O)C[C@H]1O[C@@H](n2cnc3c(N)ncnc32)[C@H](O)[C@@H]1O [Compound 102],selectivity for SETD2,selective
